Data from patent US9062078B2, “Substituted 7-azabicyles and their use as orexin receptor modulators” (priority 2013, dated 2015).

Chains of the proteins cited; added tags and fusions are not shown.
UniProt O43613, whole entry: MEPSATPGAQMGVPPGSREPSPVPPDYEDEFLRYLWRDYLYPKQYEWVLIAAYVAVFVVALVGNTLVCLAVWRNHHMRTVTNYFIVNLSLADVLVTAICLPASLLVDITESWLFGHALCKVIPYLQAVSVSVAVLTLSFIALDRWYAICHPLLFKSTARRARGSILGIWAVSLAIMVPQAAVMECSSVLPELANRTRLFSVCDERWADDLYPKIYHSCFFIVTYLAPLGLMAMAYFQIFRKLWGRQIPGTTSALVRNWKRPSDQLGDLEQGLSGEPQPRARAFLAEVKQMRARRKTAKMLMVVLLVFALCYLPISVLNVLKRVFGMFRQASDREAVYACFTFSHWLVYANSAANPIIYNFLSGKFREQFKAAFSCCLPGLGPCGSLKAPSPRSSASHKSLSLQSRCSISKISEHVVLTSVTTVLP

Tests used:
[1] = target: rat orexin 1 receptor (Rattus norvegicus, UniProt P56718); test: Rat orexin 1 receptor radioligand binding (competitive, [3H]-SB674042, HEK293 cell preparations)
[2] = target: human orexin 1 receptor (Homo sapiens (Human), UniProt O43613); test: Human orexin 1 receptor radioligand binding (competitive, [3H]-SB674042, CHO cell preparations); conditions: read-out: hOX1 Ki (nm)

Row | Compound | Ki ([1]; read-out: rOX1 Ki (nm)) [nM] | other results
1 | Cc1ccc(-n2nccn2)c(C(=O)N2C3CCC2C(COc2ccc(F)cn2)C3)n1 (racemic) [Example 111, (±)-(2-(((5-fluoropyridin-2-yl)oxy)methyl)-7-azabicyclo[2.2.1]heptan-7-yl)(6-methyl-3-(2H-1,2,3-triazol-2-yl)pyridin-2-yl)methanone] | 19 | 
2 | Cc1cccc(C(=O)N2[C@@H]3CC[C@H]2[C@H](Nc2ncc(C(F)(F)F)cn2)C3)c1-c1ncccn1 [Example 281, (3-methyl-2-(pyrimidin-2-yl)phenyl)((1S,2R,4R)-2-((5-(trifluoromethyl)pyrimidin-2-yl)amino)-7-azabicyclo[2.2.1]heptan-7-yl)methanone] | 21 | 
3 | COc1c(F)cccc1C(=O)N1C2CCC1C(COc1ccc(F)cn1)C2 (racemic) [Example 173, (±)-(3-fluoro-2-methoxyphenyl)(2-(((5-fluoropyridin-2-yl)oxy)methyl)-7-azabicyclo[2.2.1]heptan-7-yl)methanone] |  | Ki ([1]; rat orexin 1 receptor, [3H]-SB674042 competition binding, read-out: rOX1 Ki (nm)): 1260 nM
4 | Cc1ccc(-n2nccn2)c(C(=O)N2C3CCC2C(COc2ccc(F)cn2)C3)n1 (racemic) [Example 7, (±)-(2-(((5-fluoropyridin-2-yl)oxy)methyl)-7-azabicyclo[2.2.1]heptan-7-yl)(6-methyl-3-(2H-1,2,3-triazol-2-yl)pyridin-2-yl)methanone] |  | Ki ([1]; rOX1 Ki (nm)): 19 nM
5 | Cc1ccc(-n2nccn2)c(C(=O)N2[C@@H]3CC[C@H]2[C@H](COc2ccc(F)cn2)C3)n1 [Example 8A, ((1S,2R,4R)-2-(((5-fluoropyridin-2-yl)oxy)methyl)-7-azabicyclo[2.2.1]heptan-7-yl)(6-methyl-3-(2H-1,2,3-triazol-2-yl)pyridin-2-yl)methanone] |  | Ki ([1]; rOX1 Ki (nm)): 9 nM
6 | Cc1cccc(C(=O)N2[C@@H]3CC[C@H]2[C@H](Nc2cnc(C(F)(F)F)cn2)C3)c1-c1ncccn1 [Example 273, (3-methyl-2-(pyrimidin-2-yl)phenyl)((1S,2R,4R)-2-((5-(trifluoromethyl)pyrazin-2-yl)amino)-7-azabicyclo[2.2.1]heptan-7-yl)methanone] |  | Ki [2]: 12 nM
7 | Cc1noc(-c2c(F)cccc2C(=O)N2[C@@H]3CC[C@H]2[C@H](Nc2cnc(C(F)(F)F)cn2)C3)n1 [Example 254, (3-fluoro-2-(3-methyl-1,2,4-oxadiazol-5-yl)phenyl)((1S,2R,4R)-2-((5-(trifluoromethyl)pyrazin-2-yl)amino)-7-azabicyclo[2.2.1]heptan-7-yl)methanone] | 23 | 
8 | Cc1ccc(-n2nccn2)c(C(=O)N2[C@H]3CC[C@@H]2[C@@H](COc2ccc(F)cn2)C3)n1 [Example 8B, ((1R,2S,4S)-2-(((5-fluoropyridin-2-yl)oxy)methyl)-7-azabicyclo[2.2.1]heptan-7-yl)(6-methyl-3-(2H-1,2,3-triazol-2-yl)pyridin-2-yl)methanone] | > 10000 | 

Like-named read-outs stand apart in the source and are kept apart here.
